Our source for the Activity values is ChEMBL document CHEMBL3627709, “Discovery of a Novel, Potent Spirocyclic Series of γ-Secretase Inhibitors” (J Med Chem, 2015).

The experiment deals with Rattus norvegicus. In words: Antialzheimer activity in Sprague-Dawley rat assessed as reduction of total amylod beta level in brain at 10 mg/kg, po after 3 hrs by immunoassay relative to vehicle-treated control. Also on record: scale not given: the % may be the effect or the level left.

Each structure is given as a SMILES string.

As for `CP1(=O)OCC2(CCC[C@@]3(S(=O)(=O)c4ccc(Cl)cc4)c4c(F)ccc(F)c4OC[C@@H]23)CO1` (stereo partly specified), the Activity came out at 39%.
